Experimental data as given in paper PMC11753436, “Functional classification of tauopathy strains reveals the role of protofilament core residues” (Science Advances, 2025).

B1: Tau (266 to 391) (domain or fragment, human, UniProt P10636-8 266-391, looked up)
chain: LKHQPGGGKVQIINKKLDLSNVQSKCGSKDNIKHVPGGGSVQIVYKPVDLSKVTSKCGSLGNIHHKPGGGQVEVKSEKLDFKDRVQSKIGSLDNITHVPGGGNKKIETHKLTFRENAKAKTDHGAE
notes: Fibrils made in phosphate buffer pH 7.4, 10 mM DTT, 200 mM NaCl; no tag is named; source: E. coli BL21(DE3), purified (SP cation exchange, Superdex 75 SEC); fibrillised in vitro
B2: Tau (287 to 391) (domain or fragment, human, UniProt P10636-8 287-391, looked up)
chain: VQSKCGSKDNIKHVPGGGSVQIVYKPVDLSKVTSKCGSLGNIHHKPGGGQVEVKSEKLDFKDRVQSKIGSLDNITHVPGGGNKKIETHKLTFRENAKAKTDHGAE
notes: Fibrils made in phosphate buffer pH 7.4, 10 mM DTT, 200 mM MgCl2; no tag is named; source: E. coli BL21(DE3), purified (SP cation exchange, Superdex 75 SEC); fibrillised in vitro

Target: the molecule itself
Assay: cryo-EM structure; helical reconstruction (RELION 4.0) of fibrils of recombinant tau fragments assembled at 10 mg/ml in phosphate buffer pH 7.4, 10 mM DTT, 200 mM MgCl2 or NaCl, 37°C, 200 rpm, 48 hours

| Protein | binding result |
| --- | --- |
| B1 | binds |
| B2 | binds |
